Assay results as given in PMC6562952, “Experimental and Computational Study to Reveal the Potential of Non-Polar Constituents from Hizikia fusiformis as Dual Protein Tyrosine Phosphatase 1B and α-Glucosidase Inhibitors” (Marine Drugs, 2019).
Read-outs that look alike come from different tables or passages of the source.

What was measured:
[1] = biological target: T1, PTP1B (Homo sapiens, UniProt P18031); assay: Enzyme kinetic analysis towards PTP1B (Lineweaver-Burk plot and secondary plots); assay type: biochemical
T1 sequence (P18031 1-322): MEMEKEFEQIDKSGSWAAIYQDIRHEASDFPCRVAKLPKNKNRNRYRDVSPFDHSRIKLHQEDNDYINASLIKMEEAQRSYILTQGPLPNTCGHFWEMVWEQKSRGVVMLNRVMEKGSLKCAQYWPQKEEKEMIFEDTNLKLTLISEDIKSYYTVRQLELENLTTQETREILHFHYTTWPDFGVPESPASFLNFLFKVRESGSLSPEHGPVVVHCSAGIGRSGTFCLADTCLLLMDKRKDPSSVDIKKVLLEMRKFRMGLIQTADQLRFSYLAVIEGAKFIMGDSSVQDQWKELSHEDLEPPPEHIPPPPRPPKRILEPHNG
Experimental: The inhibition constant (Ki) and inhibition mode for the inhibition of PTP1B was calculated by the Lineweaver-Burk plot and its secondary plot of the slope and the y-intercept of compounds [49, 50]. […] Graphs were generated using SigmaPlot 12.0 (Systat Software Inc., San Jose, CA, USA).

[2] = biological target: T2, truncated form of human recombinant PTP1B (amino acid 1-322) (Homo sapiens, UniProt P18031); assay: In vitro PTP1B inhibitory activity assay (pNPP substrate); settings: mean ± SD of triplicate experiments
T2 sequence (P18031 1-322): T1 sequence (P18031 1-322)

Ki ([1]; secondary plot of slopes and y-intercept of Lineweaver-Burk plot, read-out: Enzyme Kinetics Ki (PTP1B inhibition constant)) | IC50 [2] | Ki ([1]; secondary plot of Km,app/Vmax,app (slope), read-out: Kic (binding constant of inhibitor with free enzyme)) | Structure (SMILES)
3.17 µM | 10.4 ± 0.75 µM |  | CC1(C)[C@@H](O)CC[C@]2(C)[C@H]3C(=O)C=C4[C@H]5C[C@@](C)(C(=O)O)CC[C@]5(C)CC[C@@]4(C)[C@]3(C)CC[C@@H]12 [Compound 22, 18α-glycyrrhetinic acid]
 | 26.1 ± 0.59 µM | 10.2 µM | CC1(C)C2CC[C@]3(C)[C@H](C(=O)C=C4[C@@H]5C[C@@](C)(C(=O)O)CC[C@]5(C)CC[C@]43C)[C@@]2(C)CC[C@@H]1O (stereo partly drawn) [Compound 23, 18β-glycyrrhetinic acid]
